This is one part of the list. The source made the active and inactive calls. Calls follow the shape of the dose curve; as a rule, active = well fitted curve in the direction sought with a large enough effect; inconclusive = small, poorly fitted or top-dose-only effect, or another doubt; inactive = no such curve, though single readings can be large or run the other way.

Amino acid sequences for entries named in this document (tags omitted). A change or cut given only in a name is not applied to a line headed by its entry.
UniProt P06280: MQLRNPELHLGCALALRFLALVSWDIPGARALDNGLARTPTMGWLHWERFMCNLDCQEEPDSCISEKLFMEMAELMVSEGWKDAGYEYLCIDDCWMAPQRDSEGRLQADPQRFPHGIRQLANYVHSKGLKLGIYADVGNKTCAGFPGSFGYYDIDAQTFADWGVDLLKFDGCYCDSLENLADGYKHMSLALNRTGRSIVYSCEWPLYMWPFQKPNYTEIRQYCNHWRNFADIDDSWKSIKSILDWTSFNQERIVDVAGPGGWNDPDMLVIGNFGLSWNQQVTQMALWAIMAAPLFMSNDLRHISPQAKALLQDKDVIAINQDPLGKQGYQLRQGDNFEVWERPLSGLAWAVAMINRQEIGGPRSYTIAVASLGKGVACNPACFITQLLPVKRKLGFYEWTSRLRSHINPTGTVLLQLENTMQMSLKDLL

In the assay the target is Alpha-galactosidase A (Homo sapiens) (UniProt P06280). As to the kind of experiment: Counterscreen for Glucocerebrosidase Inhibitors: qHTS Assay for Coffee Bean alpha-Galactosidase at pH 4.5.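 Also: plate controls were enzyme alone for no effect and no enzyme for full effect.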 The note with it: purified coffee bean alpha-galactosidase, fluorogenic substrate; at 76.9 µM (top of the series). The source says: NIH Chemical Genomics Center [NCGC]
NIH Molecular Libraries Screening Centers Network [MLSCN]
PI Name: Zheng, Wei [NIH]
Alpha-galactosidase is a homodimeric glycoprotein that hydrolyzes the terminal alpha-galactosyl moieties from glycolipids and glycoproteins. Deficiency of this enzyme results in Fabry Disease with progressive accumulation of globotriaosylceramide and other glycosphingolipids in vascular endothelial cells that causes renal failure, myocardial infarction and stroke, and premature death in patients. It has reported that the improper folding and trafficking of alpha-galactosidase resulted from the genetic mutations may account for a significant numbers of Fabry patients. […] We optimized this coffee bean alpha-galactosidase assay in 1536-well plate format as a counter-screen assay for identifying the selective small molecule inhibitors of other lysosomal enzymes.
NCGC Assay Protocol Summary:
This is a fluorogenic enzyme assay with 4-Methylumbelliferyl alpha-D-galactopyranoside as the substrate and green coffee bean alpha-glucosidase (from Sigma-Aldrich) as the enzyme preparation. Upon the hydrolysis of this fluorogenic substrate, the resulting product, […]. 4-Methyllumbelliferone, can be excited at 365 nm and emits at 440 nm which can be detected by a standard fluorescence plate reader. Data were normalized to the controls for basal activity (without enzyme) and 100% activity (with enzyme). In the AC50 values were determined from concentration-response data modeled with the standard Hill equation.
Assay buffer: 50 mM citric acid, 0.005% Tween-20, pH 4.5. (pH 5.9 is an optimal condition for this enzyme assay. This assay in pH 4.5 is used for comparison the inhibitor activities with the human alpha-galactosidase assay)
1536-well assay protocol for the coffee bean alpha-galactosidase:
(1) Add 2 ul/well of enzyme (2 nM final)
(2) Add 23 nL compounds in DMSO solution. The final titration was 0.7 nM to 77 uM.
(3) Add 1 ul of substrate (80 uM final)
(4) Incubate at room temperature for 20 min.
(5) Add 2 ul stop solution (1M NaOH and 1M Glycine mixture, pH 10)
(6) Detect the assay plate in a ViewLux plate reader (PerkinElmer) with Ex=365 nm and Em=440nm.
Keywords: Alpha-galactosidase, Fabry Disease, pharmacological chaperone, chaperone therapy, high throughput screening, alpha-galactosidase inhibitor, MLSMR, MLSCN, NIH Roadmap, qHTS and NCGC
Background: Counterscreens check selectivity or assay interference.
Consider `CN(C(=O)Cc1ccc(Cl)c(Cl)c1)[C@@H]1CCCC[C@H]1N1CCCC1`, for which the activity change, negative = inhibition was inactive: -2.82% [middle of 4 runs].

For the compound `CN(C(=O)Cc1ccccc1)[C@@H]1CC[C@@]2(CCCO2)C[C@H]1N1CCCC1`, the activity change, negative = inhibition is inactive: 0.127%.

Turning to `CN(C(=O)Cc1ccc(Cl)c(Cl)c1)[C@@H]1CC[C@@]2(CCCO2)C[C@H]1N1CCCC1`, the activity change, negative = inhibition was inactive: 1.5%.

`CN(CCCl)Cc1cc(Cl)c(NC2=NCCN2)c(Cl)c1`: the activity change, negative = inhibition is inactive: -0.236%.

(Values after PubChem BioAssay AID957 (National Center for Advancing Translational Sciences (NCATS), 2007).)
